Measurements as given in patent US20070031511A1, “Method of treatment” (priority 2003, published 2007).

Assay: Solubility of peptides in NMR sample preparation
Format: physicochemical
Settings: NMR sample conditions, pH 5.3
Protocol: For the subsequent experiments, samples were prepared for NMR spectroscopy by dissolving 2.5 mg of peptide in 0.6 ml of 10% DMSO/10% ^2H2O/80% H2O at 278 K. The pH was adjusted with small amounts of 1M NaO^2H or ^2HCl to pH 5.3. ^1H chemical shifts were referenced to 2,2-dimethyl-2-silapenthane-5-sulfonate at 0 ppm via the chemical shift of the H2O resonance or an impurity at 0.15 ppm. NMR spectra were recorded on Bruker DRX-600 and AMX-500 instruments, as described previously (Barnham et al, 1999).
The peptides LE5AYG, LE5A, E5AY and E5A (approximately 2 mM) were dissolved in H2O with 5 or 10% ^2H2O. […] Sequence-specific ^1H NMR resonance assignments were made from two-dimensional nuclear Overhauser enhancement spectroscopy (NOESY) and total correlation spectroscopy (TOCSY).

SMILES: CC(C)C[C@H](N)C(=O)N[C@@H](CCC(=O)O)C(=O)N[C@@H](CCC(=O)O)C(=O)N[C@@H](CCC(=O)O)C(=O)N[C@@H](CCC(=O)O)C(=O)N[C@@H](CCC(=O)O)C(=O)N[C@@H](C)C(=O)N[C@@H](Cc1ccc(O)cc1)C(=O)O [LE5AY]
- Solubility: slightly insoluble at 2 mM
